Experimental data from patent US7344829B2, “Methods for detecting the efficacy of anticancer treatments” (Board of Regents, the University of Texas System, priority 2000, dated 2008).

Test system: L3.6pl human pancreatic cancer cells
Test: Survival of nude mice with human pancreatic carcinoma
Assay type: in vivo
Details: gemcitabine 125 mg/kg biweekly i.p., PKI166 50 mg/kg daily oral; for Metastasis Liver / Metastasis Lymph Nodes / Pancreatic Tumors: necropsy when moribund
Protocol: Orthotopic Implantation of Tumor Cells. […] Cells were injected into the pancreas as described previously. The mice were killed when moribund (5–6 wk). […] Histopathology confirmed the nature of the disease.
The therapy experiment was repeated to determine overall survival. To do so, mice were implanted with L3.6pl cells in the pancreas and randomized to the four treatment groups (n=5) on day 7. The mice were killed and necropsied when they became moribund. The volume of pancreatic tumors and the incidence of lymph node and liver metastasis was recorded. Survival was evaluated by the Kaplan-Meier method.
Necropsy Procedures and Histological Studies. Mice were euthanized and the body weight was determined. Primary tumors in the pancreas were excised and weighed.
Statistical Analysis. Pancreatic tumor volume, incidence of metastasis, expression of VEGF, IL-8, quantification of PCNA, TUNEL, CD3 1, and the percentage of apoptotic endothelial cells were compared by unpaired Student's t test. Survival analysis was computed by the Kaplan-Meier method and compared by the log-rank test.

Compound | Survival Median | Survival Range | Metastasis Liver | Metastasis Lymph Nodes | Pancreatic Tumors
C[C@@H](Nc1ncnc2[nH]c(-c3ccc(O)cc3)cc12)c1ccccc1 [PKI166, 4-(R)-phenethylamino-6-(hydroxyl) phenyl-7H-pyrrolo[2.3-d]-pyrimidine] | 70 days | 34–90^c^ days | 5/15 | 10/15 | 15/15
Nc1ccn([C@@H]2O[C@H](CO)[C@@H](O)C2(F)F)c(=O)n1 [gemcitabine] | 56 days | 42 to 72 days | 11/15 | 13/15 | 15/15
